# Measured affinities in a library of Ab-14 light chain variants

Antigen: PDVDLGDISGINAS, a 14-residue peptide of the SARS-CoV-2 spike HR2 region.

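Phage display of a naive human antibody library on the peptide gave the parent. Library AAYL50 holds single substitutions and randomly drawn double and triple substitutions in the CDRs. Affinity was read by AlphaSeq, a pooled yeast mating assay with surface-displayed partners. Mating (16 h, 30 °C) was followed by selection of diploids and sequencing of their barcodes. Each replicate has its own calibration line, from reference interactions of the BCL2 family. The assay was run in three technical replicates.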

Parent: Ab-14, a human scFv built as VH, a (GGGGS)3 linker, VL. Only the CDRs of the light chain vary.
VH: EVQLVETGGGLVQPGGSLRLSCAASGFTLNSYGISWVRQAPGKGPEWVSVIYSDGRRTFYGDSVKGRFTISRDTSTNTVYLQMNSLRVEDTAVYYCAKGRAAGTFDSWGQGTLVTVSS
VL: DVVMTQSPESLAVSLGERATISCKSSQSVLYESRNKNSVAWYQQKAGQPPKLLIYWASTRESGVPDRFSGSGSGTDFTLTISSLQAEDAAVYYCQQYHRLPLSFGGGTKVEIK

Variants are written as CDR1, CDR2 and CDR3 of the light chain (limits as in the source). Parent: KSSQSVLYESRNKNSVA, WASTRES, QQYHRLPLS. Affinities are written as log10 Kd with Kd in nM; a lower number is a better binder. The mean shown is taken over the replicates in which the pair was detected. Where no diploid with the target was found in that replicate, the entry reads "n.d.": below detection, most likely a poor binder, though not proof of it.

CDR-L1	CDR-L2	CDR-L3	replicates, log10 nM	log10 Kd (nM), mean
KSSKSVLYESRNKNSVA	WASTRES	QQSHRLPHS	n.d. n.d. n.d.	n.d.
KDSQSVLKESRNKNSVA	WASTRES	QQYHRLSLS	n.d. n.d. n.d.	n.d.
KSSQSVLYKSRNKNSNA	WASTRES	QQYHRHPLS	n.d. 3.71 n.d.	3.71
KCSQSVIYESRNTNSVA	WASTRES	QQYHRLPLS	0.85 1.11 1.07	1.01
KSSQSVLYESRNINSVA	WMSHRES	QQYHRLPLS	n.d. n.d. n.d.	n.d.
KVSQSVLYESRNKDSVA	WASTRES	QQYHRLPFS	1.00 1.13 1.14	1.09
ASSQSVLYESDNQNSVA	WASTRES	QQYHRLPLS	1.60 1.71 1.81	1.71
KSSFSVLYESRNKNSVA	WASERES	QQYHRLPLS	0.63 0.80 0.83	0.75
KSSQSVLYYSPNKNSVA	WASTRAS	QQYHRLPLS	n.d. n.d. n.d.	n.d.
KSSQSVLYSSRNKNYFA	WASTRES	QQYHRLPLS	n.d. n.d. n.d.	n.d.
KYSQSVLYESRNKNSVA	WASTRES	QQHHRLPLN	1.63 n.d. n.d.	1.63
KSSQSVLYESRNKNSHH	WASTRKS	QQYHRLPLS	5.47 n.d. n.d.	5.47
DSSQSVLHESRNKNSVA	WASTREM	QQYHRLPLS	1.60 2.09 1.51	1.73
KSSQSVLYCSRNKNSVA	WASTRES	QQYHRYPES	n.d. 3.38 n.d.	3.38
KSSQSVLYCSRNKNSVP	WASTHES	QQYHRLPLS	n.d. n.d. n.d.	n.d.
KSSQSVLYWSRNKNSVA	WASTYES	QQYHDLPLS	n.d. n.d. n.d.	n.d.
KSSCSVLYESRNKNSVA	WAYTRES	QQYHRLPLR	n.d. n.d. n.d.	n.d.
KSSQHVLYESRNKNSPA	WASTRES	QQYHELPLS	n.d. n.d. n.d.	n.d.
KSNQSVLYESRNKNSVA	WASTREF	QQYHRLPWS	1.55 1.15 1.20	1.30
KSSQSVLLESRNKNSVA	WAWTRES	QQYHALPLS	2.68 1.65 2.18	2.17
KSSDSVLYNSRNFNSVA	WASTRES	QQYHRLPLS	0.81 0.91 0.69	0.80

Continued, with the values leading:

replicates, log10 nM	log10 Kd (nM), mean	CDR-L1	CDR-L2	CDR-L3
2.96 2.64 3.27	2.96	KSSQSVLYESRNTNSVA	WASTRES	QCCHRLPLS
n.d. n.d. n.d.	n.d.	KSSQSVLYESVNKNSVS	WASTRES	QQYHRRPLS
n.d. 3.23 n.d.	3.23	KSSQSILYESRNKNSVA	WASTRES	LLYHRLPLS
1.95 2.20 n.d.	2.08	KSSQVVLYESRNKNSVA	WASTREW	QQYNRLPLS
1.67 1.67 1.70	1.68	KSYQSQLYWSRNKNSVA	WASTRES	QQYHRLPLS
3.43 4.14 n.d.	3.79	KSSQSVLYELRNKCSVA	WASTREI	QQYHRLPLS
2.02 2.13 2.12	2.09	KSSQSVLYRSRNKNSVA	WASTRES	EQYHRLPGS
1.12 1.49 1.35	1.32	KSSQRVLYESRNKNSVA	WASTRES	QQYHRDPLS
1.73 1.98 2.11	1.94	KSSQSVLYESREKNSVA	WASTRES	QTYHRLPLT
2.22 n.d. 1.81	2.01	KSSMSVLYESRNKNSVA	WASTRIS	QQYKRLPLS
1.02 1.15 1.30	1.16	KSSKSVKYEARNKNSVA	WASTRES	QQYHRLPLS
n.d. n.d. n.d.	n.d.	KSSQSVLYESRNPNSFS	WASTRES	QQYHRLPLS
2.95 2.40 2.73	2.69	KSSQSVKQESRNKNSVA	WASTRES	QTYHRLPLS
n.d. n.d. n.d.	n.d.	FSSQSVLYESRNKNSVA	WISTRRS	QQYHRLPLS
2.83 4.10 4.31	3.75	KPSQSVLYESRMKNSVA	WAQTRES	QQYHRLPLS
2.68 2.33 2.50	2.50	KFSQFVLYESRNKNSVA	WAKTRES	QQYHRLPLS
n.d. n.d. n.d.	n.d.	ESSQEVLYESRHKNSVA	WASTRES	QQYHRLPLS
n.d. n.d. n.d.	n.d.	KSSQSVLYESRNKQMVA	WASTRES	QQYHRNPLS
4.58 5.13 n.d.	4.85	KSSQSVLYESRNKNSVA	WASTRES	GQYCRLPRS
n.d. n.d. n.d.	n.d.	KSSQSVLYESRNKNSVA	WKLTRES	QQYHRLPLS
3.54 n.d. n.d.	3.54	KSSGSVIYESRNKGSVA	WASTRES	QQYHRLPLS

As a blank, each scFv also met three strains without target: over library AAYL50, 18% of these pairings were detected, typically at 4.19 and seldom below 2.99. Parent in this assay: reference entry 0.65, copy in this library 1.68.

Values reported by Engelhart et al. 2022, doi:10.1038/s41597-022-01779-4 (FLAb copy).